Results taken from PubChem BioAssay (NCI).
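Step 1: Grow cells in 96-well plates. Step 2: Expose to compound for 48 hours at 5 concentrations. Step 3: Interpolate endpoints linearly; if unreached, use highest concentration. At the GI50, growth is halved. TGI is the concentration that stops growth completely.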

Tests used:
Test in all cases: inhibition of tumour cell growth, NCI panel, 48 h
786-0 renal = tested on: 786-0 renal
A498 renal = tested on: A498 renal
A549 NSCLC = tested on: A549 NSCLC
ACHN renal = tested on: ACHN renal
BT-549 breast = tested on: BT-549 breast
CAKI-1 renal = tested on: CAKI-1 renal
CCRF-CEM leukemia = tested on: CCRF-CEM leukemia
COLO 205 colon = tested on: COLO 205 colon
DLD-1 colon = tested on: DLD-1 colon
DMS 273 small cell lung = tested on: DMS 273 small cell lung
DU-145 prostate = tested on: DU-145 prostate
EKVX NSCLC = tested on: EKVX NSCLC
HCC-2998 colon = tested on: HCC-2998 colon
HCT-116 colon = tested on: HCT-116 colon
HCT-15 colon = tested on: HCT-15 colon
HL-60(TB) leukemia = tested on: HL-60(TB) leukemia
HOP-62 NSCLC = tested on: HOP-62 NSCLC
HOP-92 NSCLC = tested on: HOP-92 NSCLC
HS 578T breast = tested on: HS 578T breast
HT29 colon = tested on: HT29 colon
IGROV1 ovarian = tested on: IGROV1 ovarian
K-562 leukemia = tested on: K-562 leukemia
KM12 colon = tested on: KM12 colon
KM20L2 colon = tested on: KM20L2 colon
LOX IMVI melanoma = tested on: LOX IMVI melanoma
LXFL 529 NSCLC = tested on: LXFL 529 NSCLC
M14 melanoma = tested on: M14 melanoma
M19-MEL melanoma = tested on: M19-MEL melanoma
MALME-3M melanoma = tested on: MALME-3M melanoma
MCF7 breast = tested on: MCF7 breast
MDA-MB-231 breast = tested on: MDA-MB-231 breast
MDA-MB-435 = tested on: MDA-MB-435
MDA-N = tested on: MDA-N
MOLT-4 leukemia = tested on: MOLT-4 leukemia
NCI-H226 lung = tested on: NCI-H226 lung
NCI-H23 lung = tested on: NCI-H23 lung
NCI-H322M lung = tested on: NCI-H322M lung
NCI-H460 lung = tested on: NCI-H460 lung
NCI-H522 lung = tested on: NCI-H522 lung
NCI/ADR-RES ovarian = tested on: NCI/ADR-RES ovarian
OVCAR-3 ovarian = tested on: OVCAR-3 ovarian
OVCAR-4 ovarian = tested on: OVCAR-4 ovarian
OVCAR-5 ovarian = tested on: OVCAR-5 ovarian
OVCAR-8 ovarian = tested on: OVCAR-8 ovarian
PC-3 prostate = tested on: PC-3 prostate
RPMI-8226 leukemia = tested on: RPMI-8226 leukemia
RXF 393 renal = tested on: RXF 393 renal
SF-268 CNS = tested on: SF-268 CNS
SF-295 CNS = tested on: SF-295 CNS
SF-539 CNS = tested on: SF-539 CNS
SK-MEL-2 melanoma = tested on: SK-MEL-2 melanoma
SK-MEL-28 melanoma = tested on: SK-MEL-28 melanoma
SK-MEL-5 melanoma = tested on: SK-MEL-5 melanoma
SK-OV-3 ovarian = tested on: SK-OV-3 ovarian
SN12C renal = tested on: SN12C renal
SNB-19 CNS = tested on: SNB-19 CNS
SNB-75 CNS = tested on: SNB-75 CNS
SNB-78 CNS = tested on: SNB-78 CNS
SR leukemia = tested on: SR leukemia
SW-620 colon = tested on: SW-620 colon
T-47D breast = tested on: T-47D breast
TK-10 renal = tested on: TK-10 renal
U251 CNS = tested on: U251 CNS
UACC-257 melanoma = tested on: UACC-257 melanoma
UACC-62 melanoma = tested on: UACC-62 melanoma
UO-31 renal = tested on: UO-31 renal

Structure (SMILES): O=[N+]([O-])OCCOc1ccc([As](=O)(O)O)cc1[N+](=O)[O-]
- GI50 (786-0 renal): > 100 µM
- TGI (786-0 renal): > 100 µM
- GI50 (A498 renal): > 100 µM
- TGI (A498 renal): > 100 µM
- GI50 (A549 NSCLC): > 100 µM
- TGI (A549 NSCLC): > 100 µM
- GI50 (ACHN renal): > 100 µM
- TGI (ACHN renal): > 100 µM
- GI50 (BT-549 breast): > 100 µM
- TGI (BT-549 breast): > 100 µM
- GI50 (CAKI-1 renal): > 100 µM
- TGI (CAKI-1 renal): > 100 µM
- GI50 (CCRF-CEM leukemia): > 100 µM
- TGI (CCRF-CEM leukemia): > 100 µM
- GI50 (COLO 205 colon): > 100 µM
- TGI (COLO 205 colon): > 100 µM
- GI50 (DLD-1 colon): > 100 µM
- TGI (DLD-1 colon): > 100 µM
- GI50 (DMS 273 small cell lung): > 100 µM
- TGI (DMS 273 small cell lung): > 100 µM
- GI50 (DU-145 prostate): > 100 µM
- TGI (DU-145 prostate): > 100 µM
- GI50 (EKVX NSCLC): > 100 µM
- TGI (EKVX NSCLC): > 100 µM
- GI50 (HCC-2998 colon): > 100 µM
- TGI (HCC-2998 colon): > 100 µM
- GI50 (HCT-116 colon): > 100 µM
- TGI (HCT-116 colon): > 100 µM
- GI50 (HCT-15 colon): > 100 µM
- TGI (HCT-15 colon): > 100 µM
- GI50 (HL-60(TB) leukemia): > 100 µM
- TGI (HL-60(TB) leukemia): > 100 µM
- GI50 (HOP-62 NSCLC): > 100 µM
- TGI (HOP-62 NSCLC): > 100 µM
- GI50 (HOP-92 NSCLC): > 100 µM
- TGI (HOP-92 NSCLC): > 100 µM
- GI50 (HS 578T breast): > 100 µM
- TGI (HS 578T breast): > 100 µM
- GI50 (HT29 colon): > 100 µM
- TGI (HT29 colon): > 100 µM
- GI50 (IGROV1 ovarian): > 100 µM
- TGI (IGROV1 ovarian): > 100 µM
- GI50 (K-562 leukemia): > 100 µM
- TGI (K-562 leukemia): > 100 µM
- GI50 (KM12 colon): > 100 µM
- TGI (KM12 colon): > 100 µM
- GI50 (KM20L2 colon): > 100 µM
- TGI (KM20L2 colon): > 100 µM
- GI50 (LOX IMVI melanoma): > 100 µM
- TGI (LOX IMVI melanoma): > 100 µM
- GI50 (LXFL 529 NSCLC): > 100 µM
- TGI (LXFL 529 NSCLC): > 100 µM
- GI50 (M14 melanoma): > 100 µM
- TGI (M14 melanoma): > 100 µM
- GI50 (M19-MEL melanoma): > 100 µM
- TGI (M19-MEL melanoma): > 100 µM
- GI50 (MALME-3M melanoma): 18.2 µM
- TGI (MALME-3M melanoma): > 100 µM
- GI50 (MCF7 breast): > 100 µM
- TGI (MCF7 breast): > 100 µM
- GI50 (MDA-MB-231 breast): > 100 µM
- TGI (MDA-MB-231 breast): > 100 µM
- GI50 (MDA-MB-435): > 100 µM
- TGI (MDA-MB-435): > 100 µM
- GI50 (MDA-N): > 100 µM
- TGI (MDA-N): > 100 µM
- GI50 (MOLT-4 leukemia): > 100 µM
- TGI (MOLT-4 leukemia): > 100 µM
- GI50 (NCI-H226 lung): > 100 µM
- TGI (NCI-H226 lung): > 100 µM
- GI50 (NCI-H23 lung): > 100 µM
- TGI (NCI-H23 lung): > 100 µM
- GI50 (NCI-H322M lung): > 100 µM
- TGI (NCI-H322M lung): > 100 µM
- GI50 (NCI-H460 lung): > 100 µM
- TGI (NCI-H460 lung): > 100 µM
- GI50 (NCI-H522 lung): 14.5 µM
- TGI (NCI-H522 lung): > 100 µM
- GI50 (NCI/ADR-RES ovarian): > 100 µM
- TGI (NCI/ADR-RES ovarian): > 100 µM
- GI50 (OVCAR-3 ovarian): > 100 µM
- TGI (OVCAR-3 ovarian): > 100 µM
- GI50 (OVCAR-4 ovarian): > 100 µM
- TGI (OVCAR-4 ovarian): > 100 µM
- GI50 (OVCAR-5 ovarian): > 100 µM
- TGI (OVCAR-5 ovarian): > 100 µM
- GI50 (OVCAR-8 ovarian): > 100 µM
- TGI (OVCAR-8 ovarian): > 100 µM
- GI50 (PC-3 prostate): > 100 µM
- TGI (PC-3 prostate): > 100 µM
- GI50 (RPMI-8226 leukemia): > 100 µM
- TGI (RPMI-8226 leukemia): > 100 µM
- GI50 (RXF 393 renal): > 100 µM
- TGI (RXF 393 renal): > 100 µM
- GI50 (SF-268 CNS): > 100 µM
- TGI (SF-268 CNS): > 100 µM
- GI50 (SF-295 CNS): > 100 µM
- TGI (SF-295 CNS): > 100 µM
- GI50 (SF-539 CNS): > 100 µM
- TGI (SF-539 CNS): > 100 µM
- GI50 (SK-MEL-2 melanoma): > 100 µM
- TGI (SK-MEL-2 melanoma): > 100 µM
- GI50 (SK-MEL-28 melanoma): > 100 µM
- TGI (SK-MEL-28 melanoma): > 100 µM
- GI50 (SK-MEL-5 melanoma): > 100 µM
- TGI (SK-MEL-5 melanoma): > 100 µM
- GI50 (SK-OV-3 ovarian): > 100 µM
- TGI (SK-OV-3 ovarian): > 100 µM
- GI50 (SN12C renal): > 100 µM
- TGI (SN12C renal): > 100 µM
- GI50 (SNB-19 CNS): > 100 µM
- TGI (SNB-19 CNS): > 100 µM
- GI50 (SNB-75 CNS): 64.1 µM
- TGI (SNB-75 CNS): > 100 µM
- GI50 (SNB-78 CNS): > 100 µM
- TGI (SNB-78 CNS): > 100 µM
- GI50 (SR leukemia): > 100 µM
- TGI (SR leukemia): > 100 µM
- GI50 (SW-620 colon): > 100 µM
- TGI (SW-620 colon): > 100 µM
- GI50 (T-47D breast): > 100 µM
- TGI (T-47D breast): > 100 µM
- GI50 (TK-10 renal): > 100 µM
- TGI (TK-10 renal): > 100 µM
- GI50 (U251 CNS): > 100 µM
- TGI (U251 CNS): > 100 µM
- GI50 (UACC-257 melanoma): > 100 µM
- TGI (UACC-257 melanoma): > 100 µM
- GI50 (UACC-62 melanoma): > 100 µM
- TGI (UACC-62 melanoma): > 100 µM
- GI50 (UO-31 renal): > 100 µM
- TGI (UO-31 renal): > 100 µM
